Target: GLP-1 Receptor (Homo sapiens, UniProt P43220)
Test: GLP-1R agonist cAMP stimulation assay (HEK293/GLP1R/CRE-Luc cells, HTRF cAMP)
Assay type: cell-based
Experimental: Activation of GLP-1 receptor is known to stimulate cyclic AMP (cAMP) production in cells which indicates primary coupling to the Gαs subunit of the G protein heterotrimeric complex.
To optimize functional activity directed toward Gαs coupling, a HEK293/CRE-Luc cell line developed by HDB stably expressing the GLP-1 Receptor was used. […] 1×10^5 cells/mL HEK293/GLP1R/CRE-LUC(HD Biosciences) cell suspensions prepared with assay buffer[DPBS containing 0.5 mM IBMX (Sigma, Cat #I5879) and 0.1% BSA (GENVIEW, Cat #FA016-100g)], 10 uL cell suspensions were added to each well of previous generated assay plate which already contains 50 nl compound at 200×concentration using ThermoFisher Multidrop Combi (1000 cells/well). Seal the plate and incubate at 37° C. with 5% CO2 for 30 min.
After incubation the cAMP assay signal was generated using cAMP dynamic 2 Kit (Cisbio). 5 μL cAMP-d2 working solution was added to each well, followed with 5 μL Anti-cAMP antibody-cryptate working solution added to each well using ThermoFisher Multidrop Combi. Incubate at room temperature for 1 hour protected from light.

Sequences of proteins named here, by UniProt entry; tags and fusion partners are left off. Residues count along the entry.
UniProt P43220, 24-463: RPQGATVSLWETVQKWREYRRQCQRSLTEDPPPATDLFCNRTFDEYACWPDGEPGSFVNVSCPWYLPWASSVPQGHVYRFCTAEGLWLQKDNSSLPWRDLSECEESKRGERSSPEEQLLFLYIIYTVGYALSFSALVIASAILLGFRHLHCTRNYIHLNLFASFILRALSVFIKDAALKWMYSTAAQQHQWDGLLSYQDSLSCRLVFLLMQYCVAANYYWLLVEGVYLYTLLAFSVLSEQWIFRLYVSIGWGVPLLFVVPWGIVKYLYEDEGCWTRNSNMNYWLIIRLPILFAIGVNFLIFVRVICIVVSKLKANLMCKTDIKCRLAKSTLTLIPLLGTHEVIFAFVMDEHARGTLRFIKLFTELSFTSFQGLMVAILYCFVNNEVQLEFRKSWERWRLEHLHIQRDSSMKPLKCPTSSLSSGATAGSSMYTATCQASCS

O=C(O)c1ccc2nc(CN3CCC(Oc4cccc(Cc5ccccc5)n4)CC3)n(C[C@@H]3CCO3)c2n1 [Compound 123a, 2-({4-[(6-benzylpyridin-2-yl)oxy]piperidin-1-yl}methyl)-3-{[(2S)-oxetan-2-yl]methyl}-3H-imidazo[4,5-b]pyridine-5-carboxylic acid]
GLP1R cAMP Stimulation DR: pEC50: 8.8

Cc1cn(Cc2ccc(Cl)cc2F)nc1C(=O)N1CCC(Cc2nc3ccc(C(=O)O)nc3n2C[C@@H]2CCO2)CC1 [Compound 102a, (S)-2-((1-(1-(4-chloro-2-fluorobenzyl)-4-methyl-1H-pyrazole-3-carbonyl)piperidin-4-yl)methyl)-3-(oxetan-2-ylmethyl)-3H-imidazo[4,5-b]pyridine-5-carboxylic acid]
GLP1R cAMP Stimulation DR: pEC50: 6.75

O=C(O)c1ccc2nc(CC3CCN(Cc4nc(Cc5ccc(Cl)cc5F)cs4)CC3)n(C[C@@H]3CCO3)c2n1 [Compound 105a, (S)-2-((1-((4-(4-Chloro-2-fluorobenzyl)thiazol-2-yl)methyl)piperidin-4-yl)methyl)-3-(oxetan-2-ylmethyl)-3H-imidazo[4,5-b]pyridine-5-carboxylic acid]
GLP1R cAMP Stimulation DR: pEC50: 6.3

O=C(O)c1ccc2nc(CN3CCC(Oc4ccccc4Cc4ccc(Cl)cc4F)CC3)n(C[C@@H]3CCO3)c2n1 [Compound 107a, (S)-2-((4-(2-(4-Chloro-2-fluorobenzyl)phenoxy)piperidin-1-yl)methyl)-3-(oxetan-2-ylmethyl)-3H-imidazo[4,5-b]pyridine-5-carboxylic acid]
GLP1R cAMP Stimulation DR: pEC50: 6.7

O=C(O)c1ccc2nc(CN3CCC(Oc4cccc(Oc5ccc(Cl)cc5F)n4)CC3)n(C[C@@H]3CCO3)c2n1 [Compound 118a, 2-[(4-{[6-(4-chloro-2-fluorophenoxy)pyridin-2-yl]oxy}piperidin-1-yl)methyl]-3-{[(2S)-oxetan-2-yl]methyl}-3H-imidazo[4,5-b]pyridine-5-carboxylic acid]
GLP1R cAMP Stimulation DR: pEC50: 7.5

C[C@H]1CN(C(=O)c2nc(Cc3ccc(Cl)cc3F)cs2)CCN1Cc1nc2ccc(C(=O)O)nc2n1C[C@@H]1CCO1 [Compound 108a, 2-(((S)-4-(4-(4-Chloro-2-fluorobenzyl)thiazole-2-carbonyl)-2-methylpiperazin-1-yl)methyl)-3-(((S)-oxetan-2-yl)methyl)-3H-imidazo[4,5-b]pyridine-5-carboxylic acid]
GLP1R cAMP Stimulation DR: pEC50: 8.92
EC50 (read-out: GLP1R cAMP Stimulation DR: EC50): 1.2 nM

O=C(O)c1ccc2nc(CN3CCC(Oc4cccc(Cc5ccc(Cl)cc5F)n4)CC3)n(C[C@@H]3CCO3)c2n1 [Compound 109a, (S)-2-((4-((6-(4-Chloro-2-fluorobenzyl)pyridin-2-yl)oxy)piperidin-1-yl)methyl)-3-(oxetan-2-ylmethyl)-3H-imidazo[4,5-b]pyridine-5-carboxylic acid]
GLP1R cAMP Stimulation DR: pEC50: 10.3

O=C(O)c1ccc2nc(CC3CCN(C(=O)c4ccn(Cc5ccc(Cl)cc5F)n4)CC3)n(C[C@@H]3CCO3)c2n1 [Compound 101a, (S)-2-((1-(1-(4-chloro-2-fluorobenzyl)-1H-pyrazole-3-carbonyl)piperidin-4-yl)methyl)-3-(oxetan-2-ylmethyl)-3H-imidazo[4,5-b]pyridine-5-carboxylic acid]
GLP1R cAMP Stimulation DR: pEC50: 6.54

Source: patent US11926626B2, “Heterocyclic GLP-1 agonists” (Gasherbrum Bio, Inc., priority 2020, dated 2024)
